{
  "source": "paper PMC11253858",
  "about": "“New melphalan derivatives for the treatment of retinoblastoma in combination with thermotherapy” (RSC Medicinal Chemistry, 2024)",
  "system": "Y79 human retinoblastoma cell line",
  "test": "Presto blue cell viability assay in Y79 after 24 hours",
  "assay_type": "cell-based",
  "details": "Y79, 24 hours",
  "protocol": "The cytotoxicity of melphalan and the melphalan derivatives 3a–3f was evaluated on the Y79 human retinoblastoma cell line in 2D settings using an incubation time of 24 hours at a temperature of 37 °C and 5% CO2, or using conditions mimicking mild hyperthermia, i.e. incubation at 42 °C for 1 hour followed by 23 hours at 37 °C, respectively. The IC50 values were determined using the presto blue cell viability assay (Table 1).\nThe human retina (RPE1) and retinoblastoma (Y79) cell lines were purchased from ATCC, Switzerland. RPMI 1640, DMEM high glucose Glutamax and DMEM GlutaMAX media were obtained from Life Technologies, and fetal bovine serum (FBS) was obtained from Sigma. Cell culture was performed in RPMI 1640 with 20% FBS and DMEM high glucose Glutamax with 10% FBS for Y79 and RPE1, respectively. […]\nFor thermal assays, the plates were placed in a heat chamber at 42 °C for 1 h and then transferred to a bioincubator at 37 °C for 71 h where the control plates were already placed. […] Fluorescence was measured using a […]\nplate reader (Tecan […] F500 reader, Switzerland) at 560 nm for […] and 590 nm for fluorescence. The normalization of the fluorescence’s intensities was conducted with GraphPad software using Gambogic acid and DMSO as positive and negative control, […]",
  "data": [
    {"smiles": "Cl.N[C@@H](Cc1ccc(N(CCCl)CCCl)cc1)C(=O)OCCC(F)(F)C(F)(F)C(F)(F)C(F)(F)C(F)(F)C(F)(F)C(F)(F)C(F)(F)C(F)(F)C(F)(F)F", "note": "[Compound 3f]", "values": [
      {"measurement": "cytotoxicity relative to melphalan (in words)", "value": "considerably less cytotoxic than melphalan"}
    ]}
  ]
}
